Values quoted from earlier work in patent US4384994A, “Renin inhibitory peptides” (Merck & Co., Inc., priority 1981, dated 1983).

Amino acid sequences for entries named in this document (tags omitted). Residues count along the entry.
UniProt P07339, 65-412, species assumed: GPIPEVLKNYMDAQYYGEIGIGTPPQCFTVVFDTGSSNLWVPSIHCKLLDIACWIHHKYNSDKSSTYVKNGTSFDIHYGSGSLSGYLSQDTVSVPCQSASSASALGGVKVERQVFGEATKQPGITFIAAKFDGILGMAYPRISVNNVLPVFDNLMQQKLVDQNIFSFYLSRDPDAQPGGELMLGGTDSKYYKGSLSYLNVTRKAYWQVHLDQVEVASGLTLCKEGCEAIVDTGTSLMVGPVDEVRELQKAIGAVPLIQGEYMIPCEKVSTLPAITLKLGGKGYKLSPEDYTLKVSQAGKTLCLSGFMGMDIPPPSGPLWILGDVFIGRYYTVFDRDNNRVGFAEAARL

Biological target: cathepsin D (Homo sapiens, UniProt P07339)
Details: Umezawa et al. 1970

## pepstatin
  inhibition of cathepsin D: inhibitor
